# Measurements published in US4462992A, “Nitroimidazole radiosensitizers for hypoxic tumor cells and compositions thereof” (priority 1982, dated 1984).
# What was measured:
# in vivo = conditions: mouse, ip
# Method: Neurotoxicity in mice was determined using mice of strain CDF1. This was carried out by (1) determining the LD50 of each compound in mice and (2) observing the animals for acute neurotoxic symptoms such as convulsions. The drugs were either solubilized or suspended in normal saline and administered intraperitoneally to groups of ten mice. […]
# [1] = British Journal of Cancer, 40:335 (1979); cited from earlier work
# [2] = system: Chinese hamster cells line V-79; assay: Radiosensitization (enhancement ratio, cobalt-60 irradiation of hypoxic cells); type: cell-based; conditions: 1.0 mM
# Method: Asynchronous monolayers of cultures of Chinese hamster cells line V-79 were employed in all experiments. The monolayers were derived from exponentially growing cultures. Methods of culturing and handling have been reported earlier by Cooke et al, Rad. Res. 65, 152 (1976). The plated cultures were rendered hypoxic in sealed dural containers capable of holding seven petri dishes, by purging with nitrogen (oxygen-free grade) for one hour. Irradiation was carried out by using a cobalt-60 source at a dose rate of approximately 240 rad/min according to the procedure described by Agrawal et al Rad. Res. 78:532 (1979). A dose of 1400 rad was given to hypoxic cells in glass petri dishes in the presence of a given drug concentration (2000 cells/dish). Cell survival was estimated from unirradiated toxic hypoxic cells exposed to the same drug concentration. Complete survival curves were obtained for each compound at the radiation doses of 400 to 3000 rad. The Do value was calculated for each compound and the ratio of the Do value for the hypoxic control cells to the Do value of the hypoxic drug treated cells provided the sensitized enhancement ratio of the corresponding agent.
# Cultures were incubated for 6 days at 37° C. in an atmosphere of 5% CO2. The resulting colonies were fixed in absolute ethanol and stained with methylene blue and counted.
compound,measurement,setting,value
"COCC(O)Cn1ccnc1[N+](=O)[O-] (stereo not shown) [N, Misonidazole]",LD50 at 24 h,in vivo,1400 to 1600 mg/kg
same,ratio brain/plasma,[1],≥ 0.51
same,ratio tumor/plasma,[1],0.54
same,Radiosensitization (enhancement ratio in Chinese hamster cells),[2],2.1
